Legend:
[1] = Reduction of POV in sunflower oil using AKG-DiMeC12A; details: 0.3062 g in 15 mL
[2] = POV of mixed citrus oil treated with AKG-mono(DiMeC12A)
Excerpt: In addition to the treatment done in a model perfume as described above, a similar experiment was done in mixed citrus oil. A sample of mixed citrus oil was made by combining lime, orange, grapefruit, lemon, mandarin, tangerine, and bergamot oils, so that a variety of terpene hydroperoxides would be present in the treated mixture being tested. […] POV measurements were taken as a function of time after the addition. An untreated mixed citrus oil sample was handled similarly to the treated oil and also tested, because the POV can rise rapidly with handling of the sample (opening the bottle, agitation, etc.).

SMILES | solubility in sunflower oil [1] | solubility in mixed citrus oil ([2]; 200 mg in 20 mL) | reduction in POV relative to untreated material ([2]; mixed citrus oil, 1.0% w/v, 28.0 hours after addition) [%]
CCCCCCCCCCCCN(C)C.CCCCCCCCCCCCN(C)C.O=C(O)CCC(=O)C(=O)O [AKG-DiMeC12A] | did not dissolve totally |  | 
CCCCCCCCCCCCN(C)C.O=C(O)CCC(=O)C(=O)O [AKG-mono(DiMeC12A)] |  | a substantial portion of it did not dissolve | 94.2
